One compound from BindingDB's records for PubMed 11160644 (Merck Frosst Centre For Therapeutic Research, 2001) can be followed below.

The chains behind the UniProt entries cited, without tags or fusion partners.
UniProt P23219, whole entry: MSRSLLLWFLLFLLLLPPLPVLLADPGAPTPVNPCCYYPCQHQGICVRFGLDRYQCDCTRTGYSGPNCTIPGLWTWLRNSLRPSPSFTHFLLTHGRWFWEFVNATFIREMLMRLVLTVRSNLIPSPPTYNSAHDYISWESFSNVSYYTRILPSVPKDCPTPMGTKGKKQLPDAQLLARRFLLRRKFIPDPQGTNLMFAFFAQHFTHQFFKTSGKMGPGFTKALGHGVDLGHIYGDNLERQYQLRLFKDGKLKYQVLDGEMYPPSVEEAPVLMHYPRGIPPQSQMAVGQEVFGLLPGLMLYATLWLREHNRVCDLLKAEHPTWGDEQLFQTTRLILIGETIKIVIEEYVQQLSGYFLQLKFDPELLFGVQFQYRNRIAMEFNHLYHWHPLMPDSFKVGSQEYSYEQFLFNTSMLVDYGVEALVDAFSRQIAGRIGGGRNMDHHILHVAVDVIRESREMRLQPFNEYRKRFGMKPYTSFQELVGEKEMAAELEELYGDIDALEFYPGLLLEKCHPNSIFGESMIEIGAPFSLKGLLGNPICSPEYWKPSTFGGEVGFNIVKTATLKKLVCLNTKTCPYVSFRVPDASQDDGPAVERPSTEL

The target in the experiment is Prostaglandin G/H synthase 1 (Homo sapiens, UniProt P23219).

In the case of `CN1C(C(=O)Nc2ccccn2)=C(O)c2ccccc2S1(=O)=O` [NSC_4856], the Ki was determined as 760 nM.
